According to PMC5912162 (Bioconjugate chemistry, 2010):

What was measured:
[1] = system: human AsPC1 (G12D) pancreatic cancer xenografts; details: mouse, in vivo
[2] = system: human CAPAN2 (G12 V) pancreatic cancer xenografts; details: mouse, in vivo

SMILES	K/T (kidney/tumor ratio, tissue distribution) [1]	T/M (tumor/muscle ratio, tissue distribution) [1]	Kidney/tumor (K/T) ratio of 111In uptake, with elevated Gd probe dose [2]
Cc1cn(CC(=O)N(CCNC(=O)CN(CCNC(=O)CN(CCNC(=O)CN(CCNC(=O)CN(CCNC(=O)CN(CCNC(=O)CN(CCNC(=O)CN(CCNC(=O)CN(CCNC(=O)CN(CCNC(=O)COCCOCCNC(=O)COCCOCCNC(=O)[C@H](CNC(=O)[C@H](CNC(=O)[C@H](CNC(=O)COCCOCCNC(=O)CN2CCN(CC(=O)O)CCN(CC(=O)O)CCN(CC(=O)O)CC2)NC(=O)COCCOCCNC(=O)CN2CCN(CC(=O)O)CCN(CC(=O)O)CCN(CC(=O)O)CC2)NC(=O)[C@H](CNC(=O)COCCOCCNC(=O)CN2CCN(CC(=O)O)CCN(CC(=O)O)CCN(CC(=O)O)CC2)NC(=O)COCCOCCNC(=O)CN2CCN(CC(=O)O)CCN(CC(=O)O)CCN(CC(=O)O)CC2)NC(=O)[C@H](CNC(=O)[C@H](CNC(=O)COCCOCCNC(=O)CN2CCN(CC(=O)O)CCN(CC(=O)O)CCN(CC(=O)O)CC2)NC(=O)COCCOCCNC(=O)CN2CCN(CC(=O)O)CCN(CC(=O)O)CCN(CC(=O)O)CC2)NC(=O)[C@H](CNC(=O)COCCOCCNC(=O)CN2CCN(CC(=O)O)CCN(CC(=O)O)CCN(CC(=O)O)CC2)NC(=O)COCCOCCNC(=O)CN2CCN(CC(=O)O)CCN(CC(=O)O)CCN(CC(=O)O)CC2)C(=O)Cn2cnc3c(=O)[nH]c(N)nc32)C(=O)Cn2ccc(N)nc2=O)C(=O)Cn2ccc(N)nc2=O)C(=O)Cn2cnc3c(N)ncnc32)C(=O)Cn2cnc3c(N)ncnc32)C(=O)Cn2ccc(N)nc2=O)C(=O)Cn2cnc3c(N)ncnc32)C(=O)Cn2cnc3c(=O)[nH]c(N)nc32)C(=O)Cn2ccc(N)nc2=O)CC(=O)NCCN(CC(=O)NCCN(CC(=O)NCCOCCOCC(=O)N[C@@H]2CSSC[C@H](C(N)=O)NC(=O)[C@@H](CCCCN)NC(=O)[C@@H](CO)NC2=O)C(=O)Cn2ccc(N)nc2=O)C(=O)Cn2ccc(N)nc2=O)c(=O)[nH]c1=O [WT8910, (DOTA-AEEA)8-PDAP^3-AEEA2-GCCAaCAGCTCC-AEEA-D(Cys-Ser-Lys-Cys)]	122.8 ± 35.2	3.72 ± 0.007	30.8 ± 3.1
Cc1cn(CC(=O)N(CCNC(=O)CN(CCNC(=O)CN(CCNC(=O)CN(CCNC(=O)CN(CCNC(=O)CN(CCNC(=O)CN(CCNC(=O)CN(CCNC(=O)CN(CCNC(=O)CN(CCNC(=O)COCCOCCNC(=O)COCCOCCNC(=O)[C@H](CNC(=O)COCCOCCNC(=O)CN2CCN(CC(=O)O)CCN(CC(=O)O)CCN(CC(=O)O)CC2)NC(=O)COCCOCCNC(=O)CN2CCN(CC(=O)O)CCN(CC(=O)O)CCN(CC(=O)O)CC2)C(=O)Cn2cnc3c(=O)[nH]c(N)nc32)C(=O)Cn2ccc(N)nc2=O)C(=O)Cn2ccc(N)nc2=O)C(=O)Cn2cnc3c(N)ncnc32)C(=O)Cn2cc(C)c(=O)[nH]c2=O)C(=O)Cn2ccc(N)nc2=O)C(=O)Cn2cnc3c(N)ncnc32)C(=O)Cn2cnc3c(=O)[nH]c(N)nc32)C(=O)Cn2ccc(N)nc2=O)CC(=O)NCCN(CC(=O)NCCN(CC(=O)NCCOCCOCC(=O)N[C@@H]2CSSC[C@H](C(N)=O)NC(=O)[C@@H](CCCCN)NC(=O)[C@@H](CO)NC2=O)C(=O)Cn2ccc(N)nc2=O)C(=O)Cn2ccc(N)nc2=O)c(=O)[nH]c1=O [WT5195, (DOTA-AEEA)2-PDAP^1-AEEA2-GCCAtCAGCTCC-AEEA-D(Cys-Ser-Lys-Cys)]	142.67 ± 41.47		
Cc1cn(CC(=O)N(CCNC(=O)CN(CCNC(=O)CN(CCNC(=O)CN(CCNC(=O)CN(CCNC(=O)CN(CCNC(=O)CN(CCNC(=O)CN(CCNC(=O)CN(CCNC(=O)CN(CCNC(=O)COCCOCCNC(=O)COCCOCCNC(=O)[C@H](CNC(=O)COCCOCCNC(=O)CN2CCN(CC(=O)O)CCN(CC(=O)O)CCN(CC(=O)O)CC2)NC(=O)COCCOCCNC(=O)CN2CCN(CC(=O)O)CCN(CC(=O)O)CCN(CC(=O)O)CC2)C(=O)Cn2cnc3c(=O)[nH]c(N)nc32)C(=O)Cn2ccc(N)nc2=O)C(=O)Cn2ccc(N)nc2=O)C(=O)Cn2cnc3c(N)ncnc32)C(=O)Cn2cnc3c(N)ncnc32)C(=O)Cn2ccc(N)nc2=O)C(=O)Cn2cnc3c(N)ncnc32)C(=O)Cn2cnc3c(=O)[nH]c(N)nc32)C(=O)Cn2ccc(N)nc2=O)CC(=O)NCCN(CC(=O)NCCN(CC(=O)NCCOCCOCC(=O)N[C@@H]2CSSC[C@H](C(N)=O)NC(=O)[C@@H](CCCCN)NC(=O)[C@@H](CO)NC2=O)C(=O)Cn2ccc(N)nc2=O)C(=O)Cn2ccc(N)nc2=O)c(=O)[nH]c1=O [WT5204, (DOTA-AEEA)2-PDAP^1-AEEA2-GCCAaCAGCTCC-AEEA-D(Cys-Ser-Lys-Cys)]	132.2 ± 26.1		
Cc1cn(CC(=O)N(CCNC(=O)CN(CCNC(=O)CN(CCNC(=O)CN(CCNC(=O)CN(CCNC(=O)CN(CCNC(=O)CN(CCNC(=O)CN(CCNC(=O)CN(CCNC(=O)CN(CCNC(=O)COCCOCCNC(=O)COCCOCCNC(=O)[C@H](CNC(=O)[C@H](CNC(=O)[C@H](CNC(=O)COCCOCCNC(=O)CN2CCN(CC(=O)O)CCN(CC(=O)O)CCN(CC(=O)O)CC2)NC(=O)COCCOCCNC(=O)CN2CCN(CC(=O)O)CCN(CC(=O)O)CCN(CC(=O)O)CC2)NC(=O)[C@H](CNC(=O)COCCOCCNC(=O)CN2CCN(CC(=O)O)CCN(CC(=O)O)CCN(CC(=O)O)CC2)NC(=O)COCCOCCNC(=O)CN2CCN(CC(=O)O)CCN(CC(=O)O)CCN(CC(=O)O)CC2)NC(=O)[C@H](CNC(=O)[C@H](CNC(=O)COCCOCCNC(=O)CN2CCN(CC(=O)O)CCN(CC(=O)O)CCN(CC(=O)O)CC2)NC(=O)COCCOCCNC(=O)CN2CCN(CC(=O)O)CCN(CC(=O)O)CCN(CC(=O)O)CC2)NC(=O)[C@H](CNC(=O)COCCOCCNC(=O)CN2CCN(CC(=O)O)CCN(CC(=O)O)CCN(CC(=O)O)CC2)NC(=O)COCCOCCNC(=O)CN2CCN(CC(=O)O)CCN(CC(=O)O)CCN(CC(=O)O)CC2)C(=O)Cn2cnc3c(=O)[nH]c(N)nc32)C(=O)Cn2ccc(N)nc2=O)C(=O)Cn2ccc(N)nc2=O)C(=O)Cn2cnc3c(N)ncnc32)C(=O)Cn2cc(C)c(=O)[nH]c2=O)C(=O)Cn2ccc(N)nc2=O)C(=O)Cn2cnc3c(N)ncnc32)C(=O)Cn2cnc3c(=O)[nH]c(N)nc32)C(=O)Cn2ccc(N)nc2=O)CC(=O)NCCN(CC(=O)NCCN(CC(=O)NCCOCCOCC(=O)N[C@@H]2CSSC[C@H](C(N)=O)NC(=O)[C@@H](CCCCN)NC(=O)[C@@H](CO)NC2=O)C(=O)Cn2ccc(N)nc2=O)C(=O)Cn2ccc(N)nc2=O)c(=O)[nH]c1=O [WT8900, (DOTA-AEEA)8-PDAP^3-AEEA2-GCCAtCAGCTCC-AEEA-D(Cys-Ser-Lys-Cys)]	210.8 ± 79.68		
